Experimental data from patent publication US4605658A (priority 1983, dated 1986).
In brackets after ≈: the same amount, converted by molar mass.

System: Parainfluenza
Assay: microbe, parasite or virus in culture
Type: cell-based
Settings: Vero B, read-out: MIC50

Nc1ncnc2c1ncn2C[C@H](O)CO [(S)--DHPA, 9-(2,3-dihydroxypropyl)adenine, reference compound]
EC50: 20 µg/mL (≈ 95.6 µM)
